Data reported in patent US20080076812A1, “Formulations of sitaxsentan sodium” (priority 2006, published 2008).

Experiment: Drug-excipient compatibility study
Settings: binary drug/excipient mixture, 40° C./75% RH open bottle; sodium salt

Cc1cc2c(cc1CC(=O)c1sccc1S(=O)(=O)[N-]c1onc(C)c1Cl)OCO2.[Na+] [Sitaxsentan Sodium, N-(4-chloro-3-methyl-5-isoxazolyl)-2-[2-methyl-4,5-(methylenedioxy)phenylacetyl]-thiophene-3-sulfonamide, sodium salt]
Assay (%) T = 2 Weeks: 100.7%
Assay (%) T = 4 Weeks: 100.8% and 100.9%

Where “and” joins values, the source holds several entries; their conditions need not be identical. Equal values may be shown once.
